Water solubility values, as collected for the OPERA models

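OPERA's authors assembled the values from existing databases and did not measure them anew. A listed value is a point estimate from one report or more. How each value was measured is not recorded, so precision varies. The measured form (salt, isomer or mixture) is not always the one drawn. Some upstream entries may be estimates or bounds without being marked so.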

Solubility in water is on a log10 molar scale (set defined at 25 °C). Cells with "n/a" have no entry in this list.

| compound | name | log solubility (log10 mol/L) |
|---|---|---|
| CCCCCCCCCCCCOC(=O)c1ccccc1C(=O)OCCCCCCCCCCCC | Didodecyl phthalate | -6.555 |
| [S-]c1nc2ccccc2[nH]1.[S-]c1nc2ccccc2[nH]1.[Zn+2] | Antioxidant ZMB | -3.908 |
| COc1nc(C)nc(NC(=O)NS(=O)(=O)c2ccccc2Cl)n1 | Chlorsulfuron | -1.285 |
| NCCNCC(N)CCC/N=C(\N)N[N+](=O)[O-].O=C(O)C(F)(F)F.O=C(O)C(F)(F)F.O=C(O)C(F)(F)F (stereo partly drawn) | n/a | -1.071 |
| CNC(=O)Oc1cc(C)c(C)cc1Cl | Carbanolate | -3.02 |
| NC(=O)NC(O)C(Cl)(Cl)Cl (configuration not stated) | (1-Hydroxy-2,2,2-trichloroethyl)urea | -0.715 |
| O=C(O)CC(Br)C(=O)O (configuration not stated) | 2-Bromobutanedioic acid | -0.215 |
| C[C@]12CCC(=O)C[C@@H]1CC[C@@H]1[C@@H]2CC[C@]2(C)C(=O)CC[C@@H]12 | Dihydroandrostendione | -3.76 |
| CC(C)(C)CC(C)(C)c1ccc(O)cc1 | 4-(1,1,3,3-Tetramethylbutyl)phenol | -4.469 |
| Cc1ccc(CCN)cc1 | p-Methylphenethylamine | -0.745 |
| CC(C)CC(C)N (configuration not stated) | 1,3-Dimethylbutylamine | -4.108 |
| C[C@]12C[C@H]3S[C@H]3C[C@@H]1CC[C@@H]1[C@@H]2CC[C@]2(C)[C@@H](O)CC[C@@H]12 | Epitiostanol | -5.41 |
| FC=CC(F)(F)F | 1,3,3,3-Tetrafluoroprop-1-ene | -2.485 |
| C[C@@H]1O[C@@H](O[C@@H]2C=C3CC[C@@H]4[C@H](CC[C@]5(C)[C@@H](c6ccc(=O)oc6)CC[C@]45O)[C@@]3(C)CC2)[C@H](O)[C@H](O)[C@H]1O | Proscillaridin | -3.955 |
| CCCCC(CC)COC(=O)OOC(C)(C)C (configuration not stated) | OO-tert-butyl O-(2-ethylhexyl) peroxycarbonate | -4.66 |
| C[C@@H]1CN([C@H]2CC[C@](C#N)(c3ccc(F)cc3)CC2)CC[C@]1(C(=O)O)c1ccccc1 | Levocabastine | -5.083 |
| C[C@H]1O[C@@H](O[C@H]2[C@@H](O)C[C@H](O[C@H]3[C@@H](O)C[C@H](O[C@H]4CC[C@@]5(C)[C@H](CC[C@@H]6[C@@H]5C[C@@H](O)[C@]5(C)[C@@H](C7=CC(=O)OC7)[C@@H](O)C[C@]65O)C4)O[C@@H]3C)O[C@@H]2C)C[C@H](O)[C@@H]1O | Diginatin | -2.901 |
| O=[N+]([O-])c1ccc(NS(=O)(=O)c2ccc(Cl)c(C(F)(F)F)c2)c(Cl)c1 | Flusulfamide | -5.16 |
| CCCCCCCCCCCOC(=O)c1ccccc1C(=O)OCCCCCCCCCCC | Diundecyl phthalate | -5.631 |
| C[C@]12CC[C@@H]3C4=C(CC[C@H]3[C@@H]1CCC2=O)CC(=O)CC4 | Estr-5(10)-ene-3,17-dione | -4.064 |
| CCc1cc2c(s1)N(C)C(=O)CN=C2c1ccccc1Cl | Clotiazepam | -4.774 |
| Cc1cc2[nH]c(=O)[nH]c2cc1N=NC1C(=O)NC(=O)NC1=O | n/a | -6.489 |
| C[C@H]1CCCC=C[C@@H]2C[C@H](O)C[C@H]2[C@H](O)C=CC(=O)O1 | Brefeldin A | -5.67 |
| CC1CC(=O)O1 (configuration not stated) | beta-Butyrolactone | -0.343 |
| C[C@H]1CC[C@@H]2[C@@H](C)[C@H]3[C@H](C[C@H]4[C@@H]5CC=C6C[C@@H](O[C@@H]7O[C@H](CO)[C@H](O)[C@H](O[C@@H]8O[C@H](CO)[C@@H](O)[C@H](O)[C@H]8O)[C@H]7O[C@@H]7O[C@@H](C)[C@H](O)[C@@H](O)[C@H]7O)CC[C@]6(C)[C@H]5CC[C@]34C)N2C1 | alpha-Solanine | -4.541 |
| NC(=S)C(N)=S | Dithiooxamide | -2.513 |
| CCC(=O)Nc1ccccc1 | N-Phenylpropanamide | -1.92 |
| CC(=O)OC(c1ccc(Cl)c(Cl)c1)C(Cl)(Cl)Cl (configuration not stated) | 2,2,2-Trichloro-1-(3,4-dichlorophenyl)ethyl acetate | -3.83 |
| Oc1ccc2c3c1O[C@H]1[C@@H](O)CC[C@@]4(O)[C@@H](C2)N(CC2CCC2)CC[C@]314 | Nalbuphine | -2.233 |
| CC(C)C[C@H]1C(=O)N2CCC[C@H]2[C@]2(O)O[C@](NC(=O)[C@@H]3C=C4c5cccc6[nH]c(Br)c(c56)C[C@H]4N(C)C3)(C(C)C)C(=O)N12 | Bromocriptine | -3.882 |
| CNc1ccc([N+](=O)[O-])cc1[N+](=O)[O-] | N-Methyl-2,4-dinitroaniline | -3.994 |

Excerpt, the final 3 entries:

compound	name	log solubility (log10 mol/L)
Oc1ccc2c3c1O[C@H]1[C@@H](O)CC[C@@]4(O)[C@@H](C2)N(CC2CCC2)CC[C@]314	Nalbuphine	-2.233
CC(C)C[C@H]1C(=O)N2CCC[C@H]2[C@]2(O)O[C@](NC(=O)[C@@H]3C=C4c5cccc6[nH]c(Br)c(c56)C[C@H]4N(C)C3)(C(C)C)C(=O)N12	Bromocriptine	-3.882
CNc1ccc([N+](=O)[O-])cc1[N+](=O)[O-]	N-Methyl-2,4-dinitroaniline	-3.994

Data: OPERA 2.9 data sets, kmansouri/OPERA on GitHub.